The experiment concerns the target T1, Aβ42 fibrils (Homo sapiens, UniProt P05067).
T1 construct: commercial Aβ42 peptide (AnaSpec or GL Biochem); purchased AnaSpec or GL Biochem
Kind of experiment: ThT control fluorescence turn-on assay with Aβ42 fibrils. Format: binding. To be noted: [Aβ42] = 5 μM, em 485 nm, ex 435 nm. The method, then:
Aβ42 and Aβ42 fibrils was used to control for soluble vs. insoluble amyloid.
text to prepare soluble and fibrillar Aβ42, the UV-vis absorbance was measured for the soluble
Aβ42 used in the control. In a cuvette, 100 μL o f [ A β42] = 20 μM. […]

By UniProt entry, the sequences of proteins in these tests, tags left out. Residues count along the entry.
UniProt P05067, 672-713 limits assumed: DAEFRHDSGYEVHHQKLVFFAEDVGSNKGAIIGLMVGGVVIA

For orientation: Kd means a measure of binding affinity in units of concentration. Higher therefore signals a looser complex. In turn, `Cc1ccc2c(c1)sc(-c1ccc(N(C)C)cc1)[n+]2C` [ThT, Thioflavin T] had a Kd of 6 nM. In other words, the single-digit nanomolar range.

(Values after article PMC12156033, “N-Alkylamino Stilbene Compounds as Amyloid β Inhibitors for Alzheimer’s Disease Research” (Molecules, 2025).)
